# According to PubChem BioAssay AID1978 (The Scripps Research Institute Molecular Screening Center, 2009):
# The entries are a selection whose mix differs from that of the whole data set. The source made the active and inactive calls.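 How the source made its calls: active means inhibition above a limit from the primary screen, the mean over all compounds plus 3 SD (cut at about 19% in these data); inactive means the rest.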
# System: Fam108b (Abhd17b) serine hydrolase [Mus musculus]
# Test: inhibition of Fam108b (Abhd17b) hydrolase – biochemical, fluorescence polarization, triplicate, counter-screen for RBBP9 inhibitor project, confirmation (AID 1978);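 further: 0% = median of active Fam108b wells and 100% = catalytically dead S170A mutant; inhibitors free the probe so polarization falls as inhibition rises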
# Settings: recombinant Fam108b, FP-Rh probe fluorescence polarization; at 9.51 µM; stronger effect = higher value
row,Structure (SMILES),inhibition
1,Nc1cccc2c([As](=O)(O)O)cccc12,inactive: -0.23%
2,CN(C)C(=O)c1cc([N+](=O)[O-])cc2c1-c1c(cc([N+](=O)[O-])cc1[N+](=O)[O-])C2=O,active: 42.5%
3,C[N+]1=C2C=CC=CC=C2SC12C([N+](=O)[O-])=CC([N+](=O)[O-])=C[C-]2[N+](=O)[O-] (centres undefined),inactive: 15.8%
4,O=[N+]([O-])c1cc([N+](=O)[O-])c(CCN2CCOCC2)c([N+](=O)[O-])c1,active: 28.5%
